From patent publication CN116265487A (SANYOU BIO INC, dated 2023) come the findings set out here.

Sequences and labels used below:
B1: BsAb14 (bispecific antibody)
chain 1: not shown
chain 2: EIVLTQSPATLSLSPGERATLSCRASQSVSSYLAWYQQKPGQAPRLLIYGPSNRATGIPDRFSGGGSGTDFTLTISRLEPEDFAVYYCQHYGVSQHTFGQGTKLEIKRTVAAPSVFIFPPSDEQLKSGTASVVCLLNNFYPREAKVQWKVDNALQSGNSQESVTEQDSKDSTYSLSSTLTLSKADYEKHKVYACEVTHQGLSSPVTKSFNRGEC
B2: BsAb14-LALA (bispecific antibody)
chain 1: not shown
chain 2: EIVLTQSPATLSLSPGERATLSCRASQSVSSYLAWYQQKPGQAPRLLIYGPSNRATGIPDRFSGGGSGTDFTLTISRLEPEDFAVYYCQHYGVSQHTFGQGTKLEIKRTVAAPSVFIFPPSDEQLKSGTASVVCLLNNFYPREAKVQWKVDNALQSGNSQESVTEQDSKDSTYSLSSTLTLSKADYEKHKVYACEVTHQGLSSPVTKSFNRGEC
B3: BsAb30 (bispecific antibody)
chain 1: not shown
chain 2: EVQLVESGGGLVQPGGSLRLSCAASGFGLDYYAIGWFRQAPGKEREGVSCIGSSSKETNYADSVKGRFTISRDNAKNTVYLQMNSLRAEDTAVYYCTAGSPLCLISLQDHYGLYEYDYWGQGTLVTVSSGGGGSGGGGSGGGGSEIVLTQSPATLSLSPGERATLSCRASQSVSSYLAWYQQKPGQAPRLLIYGPSNRATGIPDRFSGGGSGTDFTLTISRLEPEDFAVYYCQHYGVSQHTFGQGTKLEIKRTVAAPSVFIFPPSDEQLKSGTASVVCLLNNFYPREAKVQWKVDNALQSGNSQESVTEQDSKDSTYSLSSTLTLSKADYEKHKVYACEVTHQGLSSPVTKSFNRGEC

The target in this assay is T1, 生物素标记的hANG2-Fc蛋白 (human, biotin-labelled (sites not given)).
T1 construct: also called biotin-hANG2-Fc
The assay can be described thus: FACS blocking of biotin-hANG2-Fc binding to huTie2-HEK293 cells.
For B1, the IC50 (commonly the point on the concentration scale where inhibition reaches its midpoint) is 0.415 nM.
B2 came in with an IC50 of 0.411 nM.
For B3 the value was 0.362 nM.
